Test results from ChEMBL document CHEMBL4433205, “Dual Pharmacophores Explored via Structure-Activity Relationship (SAR) Matrix: Insights into Potent, Bifunctional Opioid Ligand Design” (J Med Chem, 2019).
Activity calls are given as the source filed them. The rule behind the calls is not given here.

Sequences of proteins named here, by UniProt entry; tags and fusion partners are left off.
UniProt P33533, whole entry: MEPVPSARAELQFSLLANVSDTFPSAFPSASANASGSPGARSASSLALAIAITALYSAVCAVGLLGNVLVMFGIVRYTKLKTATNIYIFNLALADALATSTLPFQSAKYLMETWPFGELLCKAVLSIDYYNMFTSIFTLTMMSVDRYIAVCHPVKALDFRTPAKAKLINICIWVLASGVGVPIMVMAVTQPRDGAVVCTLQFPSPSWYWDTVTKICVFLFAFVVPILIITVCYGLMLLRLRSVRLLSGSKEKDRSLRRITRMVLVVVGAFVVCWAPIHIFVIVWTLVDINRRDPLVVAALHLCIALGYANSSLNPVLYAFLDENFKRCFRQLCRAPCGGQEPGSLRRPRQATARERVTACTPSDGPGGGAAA

How the values were obtained:
[1] = target: Delta-type opioid receptor (Rattus norvegicus) (UniProt P33533); test: Agonist activity at rat delta opioid receptor expressed in rat C6 cell membranes assessed as stimulation of [35S]GTPgammaS binding incubated for 1 hr relative to DPDPE; format: functional
[2] = target: Delta-type opioid receptor (Rattus norvegicus) (UniProt P33533); test: Agonist activity at rat delta opioid receptor expressed in C6 cell membranes assessed as stimulation of [35S]GTPgammaS binding at 1 uM incubated for 1 hr relative to SNC80; format: functional
In short: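 Rat DOR in C6 glioma membranes, [35S]-GTPγS binding (0.1 nM, 30 μM GDP, 1 h, 25°C). SNC80 concentration–response run alone and with 1 μM test compound present; stimulation expressed relative to SNC80. Ke = compound concentration/(EC50 shift − 1). Mean of ≥3 assays in duplicate.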

Compound	Efficacy [1]	Activity [2] [%]
Cc1cc(O)cc(C)c1C[C@H](N)C(=O)N[C@@H]1CCN(C(=O)c2ccccc2)c2ccc(Cc3ccc4ccccc4c3)cc21.O=C(O)C(F)(F)F	inactive	100
Cc1cc(O)cc(C)c1C[C@H](N)C(=O)N[C@@H]1CCN(C(=O)c2ccccc2)c2ccc(Cc3cnc4ccccc4c3)cc21.O=C(O)C(F)(F)F	inactive	100
